Results: patent US20090012045A1, “Methods of Treating Cell Proliferative Disorders” (RIGEL PHARMACEUTICALS, INC., priority 2007, published 2009)

Tested on: NCI-H322M
Settings: NCI-H322M (Non-Small Cell Lung Cancer)

Compound: COc1cc(Nc2ncc(F)c(Nc3ccc4c(n3)NC(=O)C(C)(C)O4)n2)cc(OC)c1OC.O=S(=O)(O)c1ccccc1 [Compound 1 (besylate salt), N4-(2,2-Dimethyl-3-oxo-4H-5-pyrid[1,4]oxazin-6-yl)-5-fluoro-N2-(3,4,5-trimethoxyphenyl)-2,4-pyrimidinediamine Benzenesulfonic Acid Salt]
- GI50: > 100 µM
- TGI: >1.00E−4
- CC50 (read-out: LC50): > 100 µM
